In IntAct's records for PubMed 20363749:

B1: Pentraxin-related protein PTX3 (Homo sapiens), P26022 (parent)
chain: MHLLAILFCALWSAVLAENSDDYDLMYVNLDNEIDNGLHPTEDPTPCACGQEHSEWDKLFIMLENSQMRERMLLQATDDVLRGELQRLREELGRLAESLARPCAPGAPAEARLTSALDELLQATRDAGRRLARMEGAEAQRPEEAGRALAAVLEELRQTRADLHAVQGWAARSWLPAGCETAILFPMRSKKIFGSVHPVRPMRLESFSACIWVKATDVLNKTILFSYGTKRNPYEIQLYLSYQSIVFVVGGEENKLVAEAMVSLGRWTHLCGTWNSEEGLTSLWVNGELAATTVEMATGHIVPEGGILQIGQEKNGCCVGGGFDETLAFSGRLTGFNIWDSVLSNEEIRETGGAESCHIRGNIVGWGVTEIQPHGGAQYVS

Variants of: B1
Conditions: with fgf2_human FGF2, P09038

C103S was tested. Which “effect of a mutation on the interaction” value did it give?
Its value is “decreasing interaction strength”.

With C47S;C49S;C103S as the variant, how does the “effect of a mutation on the interaction” value read?
Its value is “disrupting interaction strength”.
